Results on one compound are retold here after US20150323548A1, “METHODS OF MONITORING THE MODULATION OF THE KINASE ACTIVITY OF FIBROBLAST GROWTH FACTOR RECEPTOR AND USES OF SAID METHODS” (Novartis AG, priority 2008, published 2015).

The conditions of this series: melanoma patients, oral once daily continuous dose schedule.

Compound `CN1CCN(c2ccc3nc(-c4c(N)c5c(F)cccc5[nH]c4=O)[nH]c3c2)CC1` [TKI258] returned an MTD of 400 mg/day.
